Experiment: Water solubility
Format: physicochemical
Conditions: esters, values given in mM

solubility in water: 12.1 mM
Substance: potassium salt of sulfoethyl ester of Naproxen

— patent EP0461043A2, “Enantiomer separation by transesterification” (SEPRACOR, INC., priority 1990, dated 1991)
